Test results: PubChem BioAssay (NCI)
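Step 1: Grow cells in 96-well plates. Step 2: Expose to compound for 48 hours at 5 concentrations. Step 3: Interpolate endpoints linearly; if unreached, use highest concentration. The concentration for 50% growth inhibition is given as GI50.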

Legend:
Experiment in all cases: NCI tumour cell line growth inhibition, 48 h; in the data active = GI50 below about 0.43 µM; inactive = the rest
OVCAR-3 ovarian = tested on: OVCAR-3 ovarian
TK-10 renal = tested on: TK-10 renal
RPMI-8226 leukemia = tested on: RPMI-8226 leukemia
NCI-H226 lung = tested on: NCI-H226 lung
HT29 colon = tested on: HT29 colon
PC-3 prostate = tested on: PC-3 prostate
UACC-62 melanoma = tested on: UACC-62 melanoma
A549 NSCLC = tested on: A549 NSCLC
T-47D breast = tested on: T-47D breast
K-562 leukemia = tested on: K-562 leukemia
DU-145 prostate = tested on: DU-145 prostate
HCT-15 colon = tested on: HCT-15 colon
NCI-H23 lung = tested on: NCI-H23 lung
UO-31 renal = tested on: UO-31 renal
OVCAR-5 ovarian = tested on: OVCAR-5 ovarian
SK-MEL-5 melanoma = tested on: SK-MEL-5 melanoma
MDA-MB-231 breast = tested on: MDA-MB-231 breast
OVCAR-8 ovarian = tested on: OVCAR-8 ovarian
SK-MEL-2 melanoma = tested on: SK-MEL-2 melanoma
HOP-92 NSCLC = tested on: HOP-92 NSCLC
SF-268 CNS = tested on: SF-268 CNS
MALME-3M melanoma = tested on: MALME-3M melanoma
COLO 205 colon = tested on: COLO 205 colon
HL-60(TB) leukemia = tested on: HL-60(TB) leukemia
SN12C renal = tested on: SN12C renal
OVCAR-4 ovarian = tested on: OVCAR-4 ovarian
SR leukemia = tested on: SR leukemia
NCI-H522 lung = tested on: NCI-H522 lung
HOP-62 NSCLC = tested on: HOP-62 NSCLC
SNB-19 CNS = tested on: SNB-19 CNS
SK-MEL-28 melanoma = tested on: SK-MEL-28 melanoma
M14 melanoma = tested on: M14 melanoma
U251 CNS = tested on: U251 CNS
SW-620 colon = tested on: SW-620 colon
MOLT-4 leukemia = tested on: MOLT-4 leukemia
SK-OV-3 ovarian = tested on: SK-OV-3 ovarian
MDA-N = tested on: MDA-N
IGROV1 ovarian = tested on: IGROV1 ovarian
KM12 colon = tested on: KM12 colon
786-0 renal = tested on: 786-0 renal
MDA-MB-435 = tested on: MDA-MB-435
NCI/ADR-RES ovarian = tested on: NCI/ADR-RES ovarian
SF-295 CNS = tested on: SF-295 CNS
ACHN renal = tested on: ACHN renal
HCT-116 colon = tested on: HCT-116 colon
A498 renal = tested on: A498 renal
BT-549 breast = tested on: BT-549 breast
CAKI-1 renal = tested on: CAKI-1 renal
EKVX NSCLC = tested on: EKVX NSCLC
HS 578T breast = tested on: HS 578T breast
SF-539 CNS = tested on: SF-539 CNS
UACC-257 melanoma = tested on: UACC-257 melanoma

Measured: GI50

CN(C(=O)[C@@H](N)c1ccccc1)[C@H]1CCCC[C@@H]1N1CCCC1
inactive: OVCAR-3 ovarian > 100 µM | TK-10 renal > 100 µM | RPMI-8226 leukemia > 100 µM | NCI-H226 lung > 100 µM | HT29 colon > 100 µM | PC-3 prostate > 100 µM | UACC-62 melanoma > 100 µM | A549 NSCLC > 100 µM | T-47D breast > 100 µM | K-562 leukemia > 100 µM | DU-145 prostate > 100 µM | HCT-15 colon > 100 µM | NCI-H23 lung > 100 µM | UO-31 renal > 100 µM | OVCAR-5 ovarian > 100 µM | SK-MEL-5 melanoma > 100 µM | MDA-MB-231 breast > 100 µM | OVCAR-8 ovarian > 100 µM | SK-MEL-2 melanoma > 100 µM | HOP-92 NSCLC 9.37 µM | SF-268 CNS > 100 µM | MALME-3M melanoma > 100 µM | COLO 205 colon > 100 µM | HL-60(TB) leukemia > 100 µM | SN12C renal > 100 µM | OVCAR-4 ovarian > 100 µM | SR leukemia 5.99 µM | NCI-H522 lung > 100 µM | HOP-62 NSCLC > 100 µM | SNB-19 CNS > 100 µM | SK-MEL-28 melanoma > 100 µM | M14 melanoma > 100 µM | U251 CNS > 100 µM | SW-620 colon > 100 µM | MOLT-4 leukemia > 100 µM | SK-OV-3 ovarian > 100 µM | MDA-N > 100 µM | IGROV1 ovarian > 100 µM | KM12 colon > 100 µM | 786-0 renal > 100 µM | MDA-MB-435 = > 100 µM | NCI/ADR-RES ovarian > 100 µM | SF-295 CNS > 100 µM | ACHN renal > 100 µM | HCT-116 colon > 100 µM | A498 renal > 100 µM | BT-549 breast > 100 µM | CAKI-1 renal > 100 µM | EKVX NSCLC > 100 µM | HS 578T breast > 100 µM | SF-539 CNS > 100 µM | UACC-257 melanoma > 100 µM
